Test results taken from article PMC3448615, “The Dual Orexin/Hypocretin Receptor Antagonist, Almorexant, in the Ventral Tegmental Area Attenuates Ethanol Self-Administration” (PLoS ONE, 2012).

Amino acid sequences for entries named in this document (tags omitted).
UniProt O43613, whole entry: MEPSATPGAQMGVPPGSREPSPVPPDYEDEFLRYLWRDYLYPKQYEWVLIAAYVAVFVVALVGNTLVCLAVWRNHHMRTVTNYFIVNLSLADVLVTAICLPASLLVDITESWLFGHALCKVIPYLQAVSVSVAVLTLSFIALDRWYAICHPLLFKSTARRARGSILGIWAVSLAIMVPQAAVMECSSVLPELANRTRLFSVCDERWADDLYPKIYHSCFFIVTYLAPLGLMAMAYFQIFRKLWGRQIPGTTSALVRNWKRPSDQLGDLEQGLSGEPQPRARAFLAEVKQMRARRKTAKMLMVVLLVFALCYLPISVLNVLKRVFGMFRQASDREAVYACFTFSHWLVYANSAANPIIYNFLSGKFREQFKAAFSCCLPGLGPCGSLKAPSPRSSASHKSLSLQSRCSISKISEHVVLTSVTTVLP

Biological target: T1, Ox-R1 (orexin R1 receptor) (Homo sapiens, UniProt O43613)
T1 construct: gene HCRTR1
Assay: FLUO-3 calcium mobilization in HEK-293 cells, inhibition of […] orexin-A response
Assay type: cell-based

- IC50: 191 ± 12 nM
SMILES: CNC(=O)[C@@H](c1ccccc1)N1CCc2cc(OC)c(OC)cc2[C@@H]1CCc1ccc(C(F)(F)F)cc1 [almorexant]
